According to PMC10057977, “Use of In Vivo Imaging and Physiologically-Based Kinetic Modelling to Predict Hepatic Transporter Mediated Drug–Drug Interactions in Rats” (Pharmaceutics, 2023):

How the values were obtained:
[1] = target: T1, rOatp1b (Rattus norvegicus, UniProt Q9QZX8); type: in vivo; details: ketoconazole 3 mg/kg iv, p = 0.006
T1 construct: Drug administration and MRI acquisition were performed on animals anesthetized by inhalation of isoflurane; from tissue; host or cells: liver of living male Wistar rats (Charles River Laboratories)
T1 sequence (Q9QZX8 1-687): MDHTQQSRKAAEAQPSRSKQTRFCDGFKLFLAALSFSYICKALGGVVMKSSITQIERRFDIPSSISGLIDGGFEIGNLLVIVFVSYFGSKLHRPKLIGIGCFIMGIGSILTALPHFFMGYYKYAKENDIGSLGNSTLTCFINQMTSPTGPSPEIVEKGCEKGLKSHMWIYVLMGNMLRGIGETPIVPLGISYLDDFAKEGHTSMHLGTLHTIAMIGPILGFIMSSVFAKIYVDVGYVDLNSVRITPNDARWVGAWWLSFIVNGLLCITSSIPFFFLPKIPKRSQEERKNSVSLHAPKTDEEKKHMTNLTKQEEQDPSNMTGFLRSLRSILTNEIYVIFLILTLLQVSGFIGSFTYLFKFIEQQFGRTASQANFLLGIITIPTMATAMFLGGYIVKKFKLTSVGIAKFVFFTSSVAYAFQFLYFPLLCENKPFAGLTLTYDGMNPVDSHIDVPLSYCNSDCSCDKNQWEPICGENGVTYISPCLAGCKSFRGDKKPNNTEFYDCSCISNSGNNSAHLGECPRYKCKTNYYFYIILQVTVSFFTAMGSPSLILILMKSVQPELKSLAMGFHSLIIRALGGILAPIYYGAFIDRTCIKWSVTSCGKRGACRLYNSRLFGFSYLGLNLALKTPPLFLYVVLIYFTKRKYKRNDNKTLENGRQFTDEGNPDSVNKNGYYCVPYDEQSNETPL

[2] = test system: MRP2; details: words in supplement S1.4; cited from earlier work

## CC(=O)N1CCN(c2ccc(OCC3COC(Cn4ccnc4)(c4ccc(Cl)cc4Cl)O3)cc2)CC1 (centres unmarked) [Ketoconazole]
[1]
  relative change in gadoxetate khe vs control: −65%
[2]
  MRP2 inhibition in vitro: did not inhibit
